Test system: iBMECs
Procedure: In order to obtain region-specific primary neural cultures, E18 rat embryos were extracted from a pregnant female. Embryos were dissected and several regions of the CNS were separated including cortex, striatum, hippocampus, cerebellum and spinal cord. The regions were enzymatically dissociated into single cells before seeded pre-coated MEA plates and petri dishes, in which they were cultured in Neurobasal medium (Sigma) for two weeks. In order to validate the various primary cell cultures, the cells were stained for the neuronal marker βIII-tubulin and the glial marker GFAP (FIG. 2).
iPSCs were differentiated into iBMECs as previously described. On Day 8 of differentiation, cells were enzymatically dissociated into single cell suspensions and seeded on precoated transwell inserts. 24 hours post seeding, iBMEC inserts were placed on top of primary neural cultures derived from the different CNS regions (FIG. 3) where they were cultured for three additional days.
Fluorescence was measured using a plate reader and calculated into concentrations using a calibration curve with known concentrations. Next, the inventors plotted the chart and extracted the slope for each transwell. Slopes from empty transwells were subtracted from the obtained value and the results were used to calculate the permeability, expressed as 10-5 cm/min.

Rhodamine 1,2,3
differences in permeability between iBMEC monoculture and NVUs of different brain regions: These results were similar to the permeability of the small tracer Rhodamine
